Screening data (PubChem)
ARFGAP1 inh = inhibitors of rat ARFGAP1. inhibition, % at 16.5 µM. Arfgap1-stimulated ARF1 GTP hydrolysis, GDP FP detection. AID 651572. 360,000 compounds, 0.26% hits;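 active means inhibition above a per-plate limit, mean inhibition of low control wells plus 3 SD, cut at about 25% in these data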;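 further: 0% = DMSO wells with enzyme and 100% = wells lacking Arfgap1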
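Material: rat Arfgap1 catalytic domain, aa 1-136; also added: human ARF1(Δ1-17)-GTP substrate; compound dosing: one concentration, 16.5 µM, DMSO 1.26%; incubation: GTP hydrolysis reaction 2 h at 25 °C; measured by: Tracer-displacement fluorescence polarization with EDTA stop, 620/688 nm; evaluation: % inhibition from polarization; repeats: one replicate per compound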
ASAP1 inh = blocks human ASAP1-stimulated Arf1 GTP hydrolysis. Q9ULH1. GDP FP detection. inhibition, % at 16.5 µM. 360,000 compounds, 0.19% hits; in the data active means inhibition above about 25%;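 further: 0% = vehicle with enzyme and substrate and 100% = no enzyme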
MC4R antag cAMP = antagonists of human melanocortin 4 receptor (MC4R). MC4R-expressing cells, MTII-stimulated cAMP, LANCE TR-FRET. inhibition, % at 6.5 µM. 360,000 compounds, 0.48% hits;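 active means inhibition above its plate's cutoff, the mean of tested wells on that plate plus 3 SD, cut at about 29% in these data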;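 further: 0% = Melanotan II alone and 100% = Melanotan II plus saturating MCL0020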
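Material: U2OS-MC4R stable cell line | Reagent: Melanotan II challenge after compound preincubation | Doses: One concentration, 6.5 µM nominal | Incubation: 30-min compound preincubation, 1-h Melanotan II challenge, 1-h detection, room temperature | Signal: TR-FRET cAMP assay | Replicates: One well per compound, no replicates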
MC4R barr agon = human MC4R agonism via beta-arrestin; 360,000 compounds, 0.98% hits; activation, % at 8.9 µM; P32245; U2OS MC4R beta-arrestin complementation, luminescence; percent of melanotan II response, DMSO zero;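 active means activation above a per-plate cutoff, the mean activation of sample wells on that plate plus 3 SD, cut at about 8% in these data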
UUG fidelity = modulators of start codon recognition fidelity in yeast; S. cerevisiae UUG-firefly luciferase reporter, luminescence/redox ratio; activity score, % at 18.7 µM; hit rate 0.13% among 350,000; AID 602363;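 active = replicate mean at a twofold rise or more, about +100% in these data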;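 note: firefly luciferase made from a UUG start codon reports start codon fidelity; reporter light over untreated wells divided by growth signal over untreated wells; some hits fall short of that in this replicate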
CendR NRP1 mod = alters CendR peptide binding to human NRP-1. 360,000 compounds, 0.85% hits. O14786. FAM-RPARPAR peptide binding to NRP-1, fluorescence polarization. inhibition, % at 25 µM;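 active means inhibition or corrected inhibition above about 18%, plus a signal ratio from 0.5 to 1.5, limit read from the data, passing the limit was not always enough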
Numbers without * were called inactive; . = no result; ! = not active in a repeat. Only some compounds are listed: those with a hit (about 2.3% of all), similar ones and a draw of the others.

The opening 3 records, ahead of the listing:
SMILES	ARFGAP1 inh	ASAP1 inh	MC4R antag cAMP	MC4R barr agon	UUG fidelity	CendR NRP1 mod
CC(C)(C)OC(=O)NCc1ccc(CNC(=O)c2[nH]cnc2C(=O)Nc2ccccc2F)cc1	2.8	6.9	-1.3	9.3*	-11.3	-0.3
CC(=O)N(C)C[C@H]1[C@H](c2ccc(-c3ccccc3F)cc2)[C@@H](CO)N1C(C)=O	.	.	.	.	6.2	.
C[C@H]1CN([C@@H](C)CO)C(=O)c2c(c3ccccc3n2C)-c2ccccc2CO[C@H]1CN(C)S(=O)(=O)c1ccc(Cl)cc1	.	.	.	.	-1.5	.

All compounds of this part (from the top)
SMILES	ARFGAP1 inh	ASAP1 inh	MC4R antag cAMP	MC4R barr agon	UUG fidelity	CendR NRP1 mod
CC(C)(C)OC(=O)NCc1ccc(CNC(=O)c2[nH]cnc2C(=O)Nc2ccccc2F)cc1	2.8	6.9	-1.3	9.3*	-11.3	-0.3
CC(=O)N(C)C[C@H]1[C@H](c2ccc(-c3ccccc3F)cc2)[C@@H](CO)N1C(C)=O	.	.	.	.	6.2	.
C[C@H]1CN([C@@H](C)CO)C(=O)c2c(c3ccccc3n2C)-c2ccccc2CO[C@H]1CN(C)S(=O)(=O)c1ccc(Cl)cc1	.	.	.	.	-1.5	.
COc1ccc(CN(C)C[C@H]2OCCCC[C@@H](C)Oc3ccc(NS(=O)(=O)c4ccc(F)cc4)cc3C(=O)N([C@H](C)CO)C[C@H]2C)cc1	.	.	.	.	23.3	.
Cc1ccc(NC(=O)c2nc[nH]c2C(=O)N2CCN(C(=O)OC(C)(C)C)CC2)cc1	-5.7	-12.2	3.6	2.2	9.3	14.0
CC(C)(C)OC(=O)NCc1ccc(CNC(=O)c2nc[nH]c2C(=O)N2CCN(C(=O)OC(C)(C)C)CC2)cc1	-2.7	-6.6	4.9	1.0	-3.1	26.6*
C[C@@H](NC(=O)c1nc[nH]c1C(=O)NCc1ccccc1)c1ccccc1	-8.6	5.9	-12.4	0.6	6.7	26.4*
COc1ccc(C2CC(O)(c3ccccc3)Oc3cc(OC)ccc32)cc1 (centres undefined)	6.7	6.5	-0.7	5.4	-21.8	26.4*
COc1ccc(C2CC(=O)Oc3cc(OC)ccc32)cc1 (centres undefined)	4.5	1.1	19.7	-0.4	-3.5	-1.5
CS(=O)(=O)N1CCN(CC2CC3C=CC2C3)CC1 (centres undefined)	-10.3	3.2	-1.8	1.0	-23.0	15.4
CCN1CCN(CC2CC3C=CC2C3)CC1 (centres undefined)	-1.4	0.4	-3.2	-1.8	-5.3	31.2*
CO[C@H]1CN(C)C(=O)c2cc(NC(=O)c3ccc4c(c3)OCO4)ccc2OC[C@H](C)NC[C@H]1C	.	.	.	.	4.1	.
Cc1cc(C(=O)Nc2cccc3c2O[C@H](CN(C)C(=O)Nc2ccc(C(F)(F)F)cc2)[C@@H](C)CN([C@@H](C)CO)C3=O)n(C)n1	.	.	.	.	6.5	.
COC(=O)c1sc(NC(=O)COc2cccc3ccccc23)nc1C	5.5	4.7	-2.9	8.4*	-12.3	13.8
COC(=O)c1sc(NC(=O)COc2ccc(OC)cc2)nc1C	-4.6	6.0	12.9	-0.1	.	-20.2
COC(=O)c1sc(NC(=O)CSc2nnnn2-c2cccc(OC)c2)nc1C	21.1	2.7	3.5	8.7*	-15.8	-4.6
C[C@H](CO)N1C[C@H](C)[C@@H](CN(C)Cc2ccc(Oc3ccccc3)cc2)Oc2ccc(NC(=O)C3CCCCC3)cc2C1=O	.	.	.	.	2.9	.
C=CCN(Cc1nc(-c2ccc(OC)cc2)no1)C(=O)c1ccc2c(c1)OCO2	6.3	-2.5	16.8	-0.8	-6.4	7.7
COc1ccc(-c2noc(CN(C(=O)c3ccc4c(c3)OCO4)C(C)C)n2)cc1	-1.4	0.1	-0.8	0.4	6.4	27.5*
O=C(CNC(=O)C12CC3CC(CC(C3)C1)C2)NC1=NCCS1	-0.7	4.4	1.1	-0.6	-8.8	26.4*
O=C(CNC(=O)C1CCCCC1)NC1=NCCS1	14.8	0.7	2.2	-1.4	-20.5	2.8
O=C(NCc1ccc(F)cc1)c1cnc(-c2ccccn2)nc1C(F)(F)F	0.1	9.5	-0.1	1.0	-31.5	28.7*
O=C(NCc1ccc(F)cc1)c1cccnc1C(=O)O	4.2	6.9	8.6	-2.1	6.5	26.8*
O=C(NCc1cccs1)c1cccnc1C(=O)O	.	.	5.6	0.3	.	-0.7
COCCCNS(=O)(=O)c1ccc2c3c(cccc13)C(=O)S2	9.2	-3.6	8.5	-1.4	16.7	29.2*

Reprinted from the part before: two entries, followed by the next part.
SMILES	ARFGAP1 inh	ASAP1 inh	MC4R antag cAMP	MC4R barr agon	UUG fidelity	CendR NRP1 mod
O=C(NCc1cccs1)c1cccnc1C(=O)O	.	.	5.6	0.3	.	-0.7
COCCCNS(=O)(=O)c1ccc2c3c(cccc13)C(=O)S2	9.2	-3.6	8.5	-1.4	16.7	29.2*
COCCNS(=O)(=O)c1ccc2c3c(cccc13)C(=O)N2C	0.7	-7.2	-6.6	-0.1	.	-19.1
O=C(c1ccccc1)C1CC1c1ccccc1 (centres undefined)	5.5	6.4	2.3	-0.9	-7.5	38.3*
Cc1ccc(S(=O)(=O)N(C)C[C@@H]2Oc3ccc(NC(=O)Cc4cn(C)c5ccccc45)cc3CC(=O)N([C@H](C)CO)C[C@@H]2C)cc1	.	.	.	.	-8.0	.
CCOC(=O)C(C)Sc1nc(=O)n2ccccc2n1 (centres undefined)	-4.4	-7.0	7.5	0.2	.	18.7*
C/C(=N/OCc1ccc(Br)cc1)c1ccccn1	-0.2	1.0	-3.3	8.6*	.	5.1
C/C(=N\OC(=O)c1ccc(Br)cc1)c1ccccn1	-5.5	2.5	16.2	-0.2	.	-7.0
Cc1noc(C)c1NC(=O)N(C)C[C@H]1OCCCC[C@H](C)Oc2ccc(NS(=O)(=O)c3c(C)noc3C)cc2C(=O)N([C@@H](C)CO)C[C@@H]1C	.	.	.	.	3.0	.
COc1ccc(C(CCNC(C)c2ccccc2)C(C)C)cc1 (centres undefined)	0.6	-4.5	2.5	0.1	-3.1	-1.3
COc1ccc(C(C)NCCC(c2ccc(OC(C)C)cc2)c2ccccc2OC)cc1 (centres undefined)	-1.9	-2.2	0.4	19.7*	.	-4.0
COC(=O)[C@H]1[C@H](CO)[C@H]2Cn3c(ccc(C4=CCCC4)c3=O)[C@H]2N1C(=O)C1CC1	.	.	.	.	16.5	.
COc1ccc(F)cc1C1=CC(=O)C[C@H](c2ccc3c(c2)OCO3)C1	5.5	-9.3	-8.8	-2.4	12.9	25.3*
Cc1nc2nc(CSc3nnc(C)s3)cc(=O)n2[nH]1	-3.8	-6.2	-4.7	-1.3	-13.8	23.8*!
NCCCC[C@H]1CN=C(N)N1CCC12CC3CC(CC(C3)C1)C2	4.0	-3.6	-0.6	-1.6	-7.7	37.5*
O=C(Nc1nccs1)c1cn(-c2ccccc2)nc1-c1ccccc1	2.1	16.9	-5.5	-1.4	-43.3	2.8
CC(=O)Cc1nsc(NC(=O)c2cn(-c3ccccc3)nc2-c2ccc(Br)cc2)n1	-3.8	12.4	4.8	-0.7	-12.6	32.4*
O=C(CCNC(=O)c1ccc(Cl)cc1)NN1C(=O)NC2(CCCCC2)C1=O	-1.9	1.2	-0.6	-2.0	6.0	20.0*
CCO/C=C1/C(=O)N(Cc2ccccc2)C(=O)c2ccccc21	17.7	31.4*	0.2	-2.9	.	-38.5
COCC(=O)N1C[C@@H](C)[C@H](OC)CN(C)C(=O)c2ccc(NC(=O)C3CCC3)cc2OC[C@H]1C	.	.	.	.	32.9	.
COc1ccc(NC(=O)Nc2ccc3c(c2)C(=O)N([C@@H](C)CO)C[C@H](C)[C@@H](CN(C)C(=O)NC(C)C)O3)cc1	.	.	.	.	-4.9	.
COc1cc(/C=C2/SC(=O)N(Cc3ccccc3Cl)C2=O)ccc1OCc1ccncc1	8.9	-5.6	-0.8	1.4	5.3	21.2*
C[C@H]1CN([C@@H](C)CO)C(=O)c2cc(Br)cnc2O[C@H]1CN(C)C(=O)c1ccccc1F	.	.	.	.	24.8	.
